PMC5908839 (Scientific Reports, 2018)

By UniProt entry, the sequences of proteins in these tests, tags left out. Residues count along the entry.
UniProt L0NML6, 27-304 limits assumed: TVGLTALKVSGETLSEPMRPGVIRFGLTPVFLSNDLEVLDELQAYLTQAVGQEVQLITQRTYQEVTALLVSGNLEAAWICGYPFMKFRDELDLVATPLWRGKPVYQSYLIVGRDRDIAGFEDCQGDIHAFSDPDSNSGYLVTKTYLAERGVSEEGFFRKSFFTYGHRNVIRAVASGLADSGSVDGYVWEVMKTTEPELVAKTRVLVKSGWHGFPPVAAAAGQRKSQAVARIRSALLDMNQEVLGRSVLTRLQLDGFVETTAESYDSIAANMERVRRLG

Key:
[1] = biological target: ArxX (Alkalilimnicola ehrlichii, UniProt Q0AC64); experiment: ITC ([…] °C, pH […])
[2] = biological target: AioX (Pseudorhizobium banfieldiae, UniProt L0NML6); experiment: ITC ([…] °C, pH […]) and X-ray crystal structure ([…] Å)

O[As](O)O
Kd [1]: 311 nM
Kd [2]: 177 nM
